Article PMC12084609, “Structural insights into small-molecule agonist recognition and activation of complement receptor C3aR” (The EMBO Journal, 2025)

Target: T1, C3aR WT (Homo sapiens, UniProt Q16581)
T1 construct: expressed in transfected cells; host or cells: HEK293T
T1 sequence (Q16581 1-482): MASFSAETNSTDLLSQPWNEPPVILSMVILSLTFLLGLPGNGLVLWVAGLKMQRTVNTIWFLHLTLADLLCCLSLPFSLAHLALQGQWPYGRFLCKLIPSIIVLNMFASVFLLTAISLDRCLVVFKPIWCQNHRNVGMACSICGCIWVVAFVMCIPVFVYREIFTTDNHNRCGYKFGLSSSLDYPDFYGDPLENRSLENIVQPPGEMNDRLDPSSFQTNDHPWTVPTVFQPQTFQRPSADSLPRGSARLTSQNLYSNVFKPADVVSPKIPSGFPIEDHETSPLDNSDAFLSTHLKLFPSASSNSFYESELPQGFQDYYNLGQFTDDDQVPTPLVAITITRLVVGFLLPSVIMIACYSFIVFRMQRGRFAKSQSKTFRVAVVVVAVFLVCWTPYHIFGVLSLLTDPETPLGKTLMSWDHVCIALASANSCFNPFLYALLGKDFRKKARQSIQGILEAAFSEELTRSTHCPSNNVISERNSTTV
Assay: GloSensor-based cAMP assay, WT C3aR (HEK293T)
Format: cell-based
Conditions: for remaining activity at 1 µM: Log[ligand (M)] -6; for remaining activity at 0.001 µM: Log[ligand (M)] -9; for remaining activity at 0.0001 µM: Log[ligand (M)] -10; for remaining activity at 10 pM: Log[ligand (M)] -11; for pIC50 ± SEM (Mean) / pIC50 Value / IC50: WT C3aR; for pIC50 ± SEM (Mean): 1 μM Forskolin, mean of independent experiments; for pIC50 Value / IC50 / Span Value: Figure EV1B numerical data; for pIC50 Value: curve fit; for IC50: concentrations of the table as Log[ligand (M)]; for Span Value: span of cAMP response (% Forskolin) curve
Experimental: HEK293T cells were seeded on 6-well plates (NEST) and transfected with pGlosensor™-22F plasmids (Promega) and pcDNA3.1 plasmids encoding C3aR or its mutants an with N-terminal FLAG tag. After 48 h, cells were detached with Accutase solution (Sigma-Aldrich) and washed with PBS, and resuspended in assay buffer (CO2-independent medium with 0.5 mg mL^−1D-luciferin). 100,000–200,000 cells were seeded on 96-well white bottom plates (SPL) and incubated at 37 °C for 45 min followed by 45 min incubation at room temperature. After 90 min of incubation, basal luminescence signals were recorded. In total, 25 μl of test ligand with various concentrations and 1 μM Forskolin (Sigma-Aldrich) were treated to the cells and luminescence signals were measured by Tristar 2 LB 942 multimode reader (Berthold). […] Relative luminescence unit (%) was calculated with the signal of wells treated with vehicle as 0% and the signal of wells treated with 1 μM Forskolin as 100% (DiRaddo et al, [2014]). Nonlinear regression was performed using a three-parameter logistic equation.

[1] = HEK-293T, individual replicates, read-out: cAMP response (% Forskolin)

remaining activity at 1 µM [1] [%] | remaining activity at 0.1 µM (HEK-293T, Log[ligand (M)] -7, individual replicates, read-out: cAMP response (% Forskolin)) [%] | remaining activity at 0.001 µM [1] [%] | remaining activity at 0.0001 µM [1] [%] | remaining activity at 10 pM [1] [%] | pIC50 ± SEM (Mean) | pIC50 Value | IC50 [M] | Span Value | remaining activity at 0.01 µM (HEK-293T, Log[ligand (M)] -8, individual replicates, read-out: cAMP response (% Forskolin)) [%] | SMILES
17 | 30.4 | 96 | 105 | 99.7 | 7.31 ± 0.12 | 7.70 | 1.99e-08 | 87.38 | – | CC(C)C[C@H](NC(=O)CNC(=O)[C@H](CC(C)C)NC(=O)[C@H](Cc1c[nH]cn1)NC(=O)[C@H](CO)NC(=O)[C@H](C)NC(=O)[C@H](CCCNC(=N)N)NC(=O)[C@H](C)NC(=O)[C@H](Cc1c[nH]cn1)NC(=O)[C@H](CCC(N)=O)NC(=O)[C@H](CCCNC(=N)N)NC(=O)[C@H](CCCNC(=N)N)NC(=O)[C@@H](N)CC(C)C)C(=O)N[C@@H](C)C(=O)N[C@@H](CCCNC(=N)N)C(=O)O [C3a 63-77, reference compound]
15.8 | – | 86.1 | 96.2 | 101 | 8.27 ± 0.07 | 8.25 | 5.56e-09 | 86.79 | 50.9 | CSCC[C@H](NC(=O)[C@@H]1CCCN1C(=O)[C@H](CCCCN)NC(=O)[C@H](Cc1ccccc1)NC(=O)[C@H](CO)NC(=O)[C@@H](N)Cc1ccc(O)cc1)C(=O)N1CCC[C@H]1C(=O)N[C@@H](CC(C)C)C(=O)N[C@H](C)C(=O)N[C@@H](CCCNC(=N)N)C(=O)O [EP54, reference compound]
